Measurements published in patent US20250236609A1, “VPS34 INHIBITORS AND METHODS OF USE THEREOF” (Deciphera Pharmaceuticals, LLC, priority 2023, published 2025).

Sequences of proteins named here, by UniProt entry; tags and fusion partners are left off. A change or cut given only in a name is not applied to a line headed by its entry.
UniProt P42336, whole entry: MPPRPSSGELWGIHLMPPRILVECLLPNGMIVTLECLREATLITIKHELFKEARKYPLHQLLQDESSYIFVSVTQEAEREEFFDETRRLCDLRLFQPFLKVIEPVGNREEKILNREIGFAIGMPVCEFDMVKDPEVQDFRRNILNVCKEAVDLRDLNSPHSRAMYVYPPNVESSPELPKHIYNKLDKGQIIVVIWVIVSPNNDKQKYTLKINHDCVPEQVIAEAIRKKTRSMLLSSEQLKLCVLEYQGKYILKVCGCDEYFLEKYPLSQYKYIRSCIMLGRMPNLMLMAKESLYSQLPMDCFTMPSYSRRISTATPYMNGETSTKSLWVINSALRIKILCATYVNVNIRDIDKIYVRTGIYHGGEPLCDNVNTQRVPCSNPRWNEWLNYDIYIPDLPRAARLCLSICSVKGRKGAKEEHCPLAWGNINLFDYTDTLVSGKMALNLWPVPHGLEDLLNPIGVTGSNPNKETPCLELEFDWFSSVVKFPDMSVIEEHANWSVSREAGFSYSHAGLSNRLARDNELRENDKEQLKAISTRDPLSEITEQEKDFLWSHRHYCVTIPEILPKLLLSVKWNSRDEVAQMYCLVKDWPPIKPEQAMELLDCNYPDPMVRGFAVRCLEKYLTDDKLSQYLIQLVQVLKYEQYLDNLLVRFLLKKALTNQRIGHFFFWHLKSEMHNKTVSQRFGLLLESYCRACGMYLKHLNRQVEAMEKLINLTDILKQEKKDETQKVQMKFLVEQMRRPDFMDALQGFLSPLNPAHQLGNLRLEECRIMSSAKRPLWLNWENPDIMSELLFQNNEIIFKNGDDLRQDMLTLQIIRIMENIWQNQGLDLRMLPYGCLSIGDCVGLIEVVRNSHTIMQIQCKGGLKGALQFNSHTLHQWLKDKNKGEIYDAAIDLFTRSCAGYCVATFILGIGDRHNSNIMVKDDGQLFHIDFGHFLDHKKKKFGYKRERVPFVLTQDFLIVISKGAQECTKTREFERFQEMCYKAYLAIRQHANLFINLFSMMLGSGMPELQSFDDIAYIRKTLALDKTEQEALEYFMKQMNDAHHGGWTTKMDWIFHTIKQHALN
UniProt P42336, whole entry E542K: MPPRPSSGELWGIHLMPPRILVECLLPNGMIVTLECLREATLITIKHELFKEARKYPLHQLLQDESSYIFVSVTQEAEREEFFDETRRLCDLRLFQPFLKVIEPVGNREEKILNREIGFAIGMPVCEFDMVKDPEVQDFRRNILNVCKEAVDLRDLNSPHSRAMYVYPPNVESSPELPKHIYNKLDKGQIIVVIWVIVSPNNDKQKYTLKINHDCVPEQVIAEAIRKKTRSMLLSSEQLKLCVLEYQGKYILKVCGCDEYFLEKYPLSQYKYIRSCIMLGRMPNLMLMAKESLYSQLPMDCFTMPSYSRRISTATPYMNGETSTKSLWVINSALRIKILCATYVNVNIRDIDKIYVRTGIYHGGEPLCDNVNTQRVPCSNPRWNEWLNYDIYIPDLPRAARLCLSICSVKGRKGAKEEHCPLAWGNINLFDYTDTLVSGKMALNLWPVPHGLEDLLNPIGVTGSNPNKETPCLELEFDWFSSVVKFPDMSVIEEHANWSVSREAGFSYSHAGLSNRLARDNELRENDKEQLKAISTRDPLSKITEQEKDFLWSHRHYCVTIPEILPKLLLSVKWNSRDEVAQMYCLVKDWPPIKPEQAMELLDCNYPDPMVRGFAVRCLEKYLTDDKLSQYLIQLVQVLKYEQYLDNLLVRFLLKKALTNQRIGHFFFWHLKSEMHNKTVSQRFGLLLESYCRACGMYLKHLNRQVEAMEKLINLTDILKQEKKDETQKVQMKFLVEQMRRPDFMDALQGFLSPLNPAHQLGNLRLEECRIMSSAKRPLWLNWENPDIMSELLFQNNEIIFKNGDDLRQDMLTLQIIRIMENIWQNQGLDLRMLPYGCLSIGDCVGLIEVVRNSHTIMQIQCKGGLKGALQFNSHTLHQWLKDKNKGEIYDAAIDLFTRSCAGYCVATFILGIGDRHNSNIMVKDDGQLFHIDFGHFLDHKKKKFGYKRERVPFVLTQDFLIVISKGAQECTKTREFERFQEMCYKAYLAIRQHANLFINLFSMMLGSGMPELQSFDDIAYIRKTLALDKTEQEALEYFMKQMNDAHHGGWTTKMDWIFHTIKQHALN
UniProt P42336, whole entry E545K: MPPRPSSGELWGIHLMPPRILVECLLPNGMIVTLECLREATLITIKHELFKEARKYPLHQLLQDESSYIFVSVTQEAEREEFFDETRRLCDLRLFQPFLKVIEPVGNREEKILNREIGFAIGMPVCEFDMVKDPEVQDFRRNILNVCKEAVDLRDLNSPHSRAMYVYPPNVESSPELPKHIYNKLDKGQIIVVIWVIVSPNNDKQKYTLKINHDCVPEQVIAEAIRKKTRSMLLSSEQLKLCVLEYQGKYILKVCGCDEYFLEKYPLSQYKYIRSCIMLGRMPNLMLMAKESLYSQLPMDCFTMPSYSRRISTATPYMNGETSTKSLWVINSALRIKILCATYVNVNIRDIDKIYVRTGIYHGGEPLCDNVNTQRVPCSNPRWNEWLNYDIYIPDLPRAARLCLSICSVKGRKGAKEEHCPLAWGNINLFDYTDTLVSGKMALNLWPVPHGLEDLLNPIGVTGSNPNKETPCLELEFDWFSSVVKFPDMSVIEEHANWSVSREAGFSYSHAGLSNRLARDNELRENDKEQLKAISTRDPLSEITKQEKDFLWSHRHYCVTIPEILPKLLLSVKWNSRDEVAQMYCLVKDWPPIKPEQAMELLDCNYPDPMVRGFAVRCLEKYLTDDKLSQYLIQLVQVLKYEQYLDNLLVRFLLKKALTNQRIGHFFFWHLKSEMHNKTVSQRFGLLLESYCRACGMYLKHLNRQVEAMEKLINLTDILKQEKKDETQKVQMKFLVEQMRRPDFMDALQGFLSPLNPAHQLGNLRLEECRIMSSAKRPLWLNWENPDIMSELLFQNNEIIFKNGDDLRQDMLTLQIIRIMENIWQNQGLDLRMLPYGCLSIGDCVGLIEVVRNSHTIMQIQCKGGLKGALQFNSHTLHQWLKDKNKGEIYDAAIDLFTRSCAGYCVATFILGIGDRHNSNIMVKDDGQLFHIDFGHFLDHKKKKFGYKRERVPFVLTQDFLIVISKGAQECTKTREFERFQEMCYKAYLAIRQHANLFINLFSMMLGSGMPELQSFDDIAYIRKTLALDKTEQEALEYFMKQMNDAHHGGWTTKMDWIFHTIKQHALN
UniProt P42336, whole entry H1047R: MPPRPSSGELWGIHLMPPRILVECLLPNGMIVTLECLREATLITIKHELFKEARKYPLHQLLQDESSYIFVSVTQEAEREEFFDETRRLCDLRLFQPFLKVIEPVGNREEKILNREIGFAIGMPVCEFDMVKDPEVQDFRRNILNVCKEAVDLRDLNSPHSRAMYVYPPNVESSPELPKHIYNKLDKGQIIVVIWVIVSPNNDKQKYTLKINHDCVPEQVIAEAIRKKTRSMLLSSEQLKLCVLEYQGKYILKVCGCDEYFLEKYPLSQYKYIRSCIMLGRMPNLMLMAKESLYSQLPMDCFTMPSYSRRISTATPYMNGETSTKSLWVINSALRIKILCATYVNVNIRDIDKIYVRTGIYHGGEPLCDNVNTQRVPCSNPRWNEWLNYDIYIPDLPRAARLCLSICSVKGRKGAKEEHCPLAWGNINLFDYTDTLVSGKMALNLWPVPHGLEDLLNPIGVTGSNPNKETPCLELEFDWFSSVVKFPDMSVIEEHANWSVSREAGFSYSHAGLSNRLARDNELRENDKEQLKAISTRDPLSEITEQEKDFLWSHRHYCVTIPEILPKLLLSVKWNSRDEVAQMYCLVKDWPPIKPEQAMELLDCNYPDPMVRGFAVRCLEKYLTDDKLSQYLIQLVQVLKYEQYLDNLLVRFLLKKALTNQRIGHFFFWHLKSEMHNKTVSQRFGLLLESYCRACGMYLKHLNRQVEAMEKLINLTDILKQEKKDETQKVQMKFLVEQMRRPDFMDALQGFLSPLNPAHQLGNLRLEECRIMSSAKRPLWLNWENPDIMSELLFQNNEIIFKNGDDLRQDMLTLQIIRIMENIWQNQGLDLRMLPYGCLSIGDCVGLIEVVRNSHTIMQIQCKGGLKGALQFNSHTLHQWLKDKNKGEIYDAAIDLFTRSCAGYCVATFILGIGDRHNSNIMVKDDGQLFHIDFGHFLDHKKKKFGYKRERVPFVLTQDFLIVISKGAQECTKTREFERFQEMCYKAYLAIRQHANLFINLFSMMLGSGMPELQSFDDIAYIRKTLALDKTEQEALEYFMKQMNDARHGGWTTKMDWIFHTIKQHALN
UniProt O00443, whole entry: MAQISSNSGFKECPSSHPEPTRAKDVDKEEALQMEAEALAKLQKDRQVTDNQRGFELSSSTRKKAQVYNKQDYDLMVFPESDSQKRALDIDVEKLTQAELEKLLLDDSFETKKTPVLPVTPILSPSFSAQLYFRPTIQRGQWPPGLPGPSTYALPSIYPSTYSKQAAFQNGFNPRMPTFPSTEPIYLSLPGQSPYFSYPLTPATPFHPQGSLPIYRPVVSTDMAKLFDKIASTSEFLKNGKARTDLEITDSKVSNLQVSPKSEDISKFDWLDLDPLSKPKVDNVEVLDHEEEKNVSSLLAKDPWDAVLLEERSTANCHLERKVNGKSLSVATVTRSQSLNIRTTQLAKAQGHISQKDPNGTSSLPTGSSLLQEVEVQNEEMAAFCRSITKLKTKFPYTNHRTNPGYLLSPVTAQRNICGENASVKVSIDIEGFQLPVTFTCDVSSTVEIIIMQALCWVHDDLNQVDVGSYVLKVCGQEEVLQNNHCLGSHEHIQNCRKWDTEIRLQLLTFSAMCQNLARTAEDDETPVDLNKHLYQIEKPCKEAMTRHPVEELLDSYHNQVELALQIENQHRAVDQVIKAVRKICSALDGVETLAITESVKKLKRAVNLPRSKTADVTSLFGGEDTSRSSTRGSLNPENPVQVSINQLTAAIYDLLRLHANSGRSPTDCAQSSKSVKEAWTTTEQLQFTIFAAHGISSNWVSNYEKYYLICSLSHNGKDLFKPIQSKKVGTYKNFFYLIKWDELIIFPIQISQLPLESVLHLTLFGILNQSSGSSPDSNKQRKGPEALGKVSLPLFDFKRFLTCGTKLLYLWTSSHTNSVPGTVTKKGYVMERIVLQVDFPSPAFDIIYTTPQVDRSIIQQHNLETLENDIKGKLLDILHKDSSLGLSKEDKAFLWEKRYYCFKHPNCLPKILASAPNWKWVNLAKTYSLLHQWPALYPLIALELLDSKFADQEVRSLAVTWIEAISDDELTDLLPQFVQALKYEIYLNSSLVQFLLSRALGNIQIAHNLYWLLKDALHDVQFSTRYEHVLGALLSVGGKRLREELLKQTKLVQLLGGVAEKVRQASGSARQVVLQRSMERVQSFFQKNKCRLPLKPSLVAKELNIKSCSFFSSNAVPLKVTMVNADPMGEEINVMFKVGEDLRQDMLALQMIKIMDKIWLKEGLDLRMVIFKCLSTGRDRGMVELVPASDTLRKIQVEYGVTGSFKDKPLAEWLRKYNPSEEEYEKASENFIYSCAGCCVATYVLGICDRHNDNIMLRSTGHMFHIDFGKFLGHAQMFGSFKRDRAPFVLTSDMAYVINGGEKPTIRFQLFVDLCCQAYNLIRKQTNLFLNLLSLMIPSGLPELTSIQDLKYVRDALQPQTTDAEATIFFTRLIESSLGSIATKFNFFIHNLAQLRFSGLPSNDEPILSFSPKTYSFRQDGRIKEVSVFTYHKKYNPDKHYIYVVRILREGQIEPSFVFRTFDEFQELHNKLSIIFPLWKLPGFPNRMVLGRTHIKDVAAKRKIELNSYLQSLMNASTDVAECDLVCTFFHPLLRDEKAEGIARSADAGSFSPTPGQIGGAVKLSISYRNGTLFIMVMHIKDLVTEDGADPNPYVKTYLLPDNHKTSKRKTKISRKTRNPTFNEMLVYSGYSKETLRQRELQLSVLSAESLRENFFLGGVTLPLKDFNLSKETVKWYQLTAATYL

Assays:
[1] = molecular target: PI3K (p110α (E545K)/p85α) (Homo sapiens (Human), UniProt P42336, E545K); test: Lipid kinase selectivity panel (Reaction Biology); format: biochemical; details: 1 μM compound, single dose duplicates, 10 μM ATP
Protocol: (§1) The compounds of the present invention were tested in a standard lipid kinase selectivity panel: 16 other lipid kinases (Reaction Biology, Malvern, PA, USA), under conditions of non-disclosure, non-dissemination, and non-use. In brief, compounds (see Table 2) were tested at in single dose duplicates at 1 μM against lipid kinases, including PI3Kα, PI3Kβ, and PI3Kδ, and reactions were carried out at 10 μM ATP.

PI3Kα (p110α/p85α) = PI3Kα (p110α/p85α) (Homo sapiens (Human), UniProt P42336); test: Lipid kinase selectivity panel (Reaction Biology); format: biochemical; details: 1 μM compound, single dose duplicates, 10 μM ATP
Protocol: as §1

PI3Kg (p110γ) = PI3Kg (p110γ) (Homo sapiens (Human), UniProt P48736); test: Lipid kinase selectivity panel (Reaction Biology); format: biochemical; details: 1 μM compound, single dose duplicates, 10 μM ATP
Protocol: as §1

PI3Kb (p110β/p85α) = PI3Kb (p110β/p85α) (Homo sapiens (Human), UniProt P42338); test: Lipid kinase selectivity panel (Reaction Biology); format: biochemical; details: 1 μM compound, single dose duplicates, 10 μM ATP
Protocol: as §1

PI3KC2α = PI3KC2α (Homo sapiens (Human), UniProt O00443); test: Lipid kinase selectivity panel (Reaction Biology); format: biochemical; details: 1 μM compound, single dose duplicates, 10 μM ATP
Protocol: as §1

PI3Kd (p110δ/p85α) = PI3Kd (p110δ/p85α) (Homo sapiens (Human), UniProt O00329); test: Lipid kinase selectivity panel (Reaction Biology); format: biochemical; details: 1 μM compound, single dose duplicates, 10 μM ATP
Protocol: as §1

[2] = molecular target: PI3K (p110α (E542K)/p85α) (Homo sapiens (Human), UniProt P42336, E542K); test: Lipid kinase selectivity panel (Reaction Biology); format: biochemical; details: 1 μM compound, single dose duplicates, 10 μM ATP
Protocol: as §1

PI3K (p110α/p65α) = PI3K (p110α/p65α) (Homo sapiens (Human), UniProt P42336); test: Lipid kinase selectivity panel (Reaction Biology); format: biochemical; details: 1 μM compound, single dose duplicates, 10 μM ATP
Protocol: as §1

[3] = molecular target: PI3K (p110α (H1047R)/p85α) (Homo sapiens (Human), UniProt P42336, H1047R); test: Lipid kinase selectivity panel (Reaction Biology); format: biochemical; details: 1 μM compound, single dose duplicates, 10 μM ATP
Protocol: as §1

VPS34 = VPS34 (Homo sapiens (Human), UniProt Q8NEB9); test: Biochemical Assay for VPS34 (ADP-Glo kinase activity assay); details: read-out: VPS34 (Inhibition of biochemical activity of VPS34, IC50); 25 nM VPS34, 1 mM ATP, 1-hour incubation at 37° C.
Protocol: Activity of VPS34 kinase was determined using an ADP-Glo kinase activity assay (Promega Corp). Assays were conducted in 384-well plates (5 μL assay volume) using 25 nM VPS34 (ThermoFisher Scientific), […] PI:3PS Lipid Kinase Substrate (Promega Corp.), and 1 mM ATP in kinase buffer. Inhibition of VPS34 was measured by adding serial diluted test compound (final assay concentration of 0.1% DMSO) followed by a 1-hour incubation at 37° C. ADP-Glo reagent was then added ([…]) followed by a 40 min incubation at rt. Kinase detection reagent was then added ([…]) and followed by a 60 min incubation at rt. Luminescence was then detected. The RLU at each compound concentration of was converted to percent inhibition using controls (i.e., reaction with no test compound and reaction with a known inhibitor) and IC50 values were calculated by fitting a four-parameter sigmoidal curve to the data using GeneData Screener software.
VPS34 Protein Sequence (Full Length with GST Tag)

- Percent inhibition relative to DMSO control, PI3K (p110α (E545K)/p85α) [1]: 4%
- Percent inhibition relative to DMSO control, PI3Kα (p110α/p85α) (PI3Kα (p110α/p85α)): −10%
- Percent inhibition relative to DMSO control, PI3Kg (p110γ) (PI3Kg (p110γ)): −2%
- Percent inhibition relative to DMSO control, PI3Kb (p110β/p85α) (PI3Kb (p110β/p85α)): −6%
- Percent inhibition relative to DMSO control, PI3KC2α (PI3KC2α): 2%
- Percent inhibition relative to DMSO control, PI3Kd (p110δ/p85α) (PI3Kd (p110δ/p85α)): 3%
- Percent inhibition relative to DMSO control, PI3K (p110α (E542K)/p85α) [2]: −9%
- Percent inhibition relative to DMSO control, PI3K (p110α/p65α) (PI3K (p110α/p65α)): 8%
- Percent inhibition relative to DMSO control, PI3K (p110α (H1047R)/p85α) [3]: −2%
- IC50 (VPS34): 100 to 500 nM
Compound: COC(=O)Nc1cc(-c2cc(N3CCCC[C@@H]3C(F)(F)F)[nH]c(=O)c2)c(Cl)cn1
